Our source for the activation values is PubChem BioAssay AID1304 (The Scripps Research Institute Molecular Screening Center, 2008).

Amino acid sequences for entries named in this document (tags omitted).
UniProt P25929, whole entry: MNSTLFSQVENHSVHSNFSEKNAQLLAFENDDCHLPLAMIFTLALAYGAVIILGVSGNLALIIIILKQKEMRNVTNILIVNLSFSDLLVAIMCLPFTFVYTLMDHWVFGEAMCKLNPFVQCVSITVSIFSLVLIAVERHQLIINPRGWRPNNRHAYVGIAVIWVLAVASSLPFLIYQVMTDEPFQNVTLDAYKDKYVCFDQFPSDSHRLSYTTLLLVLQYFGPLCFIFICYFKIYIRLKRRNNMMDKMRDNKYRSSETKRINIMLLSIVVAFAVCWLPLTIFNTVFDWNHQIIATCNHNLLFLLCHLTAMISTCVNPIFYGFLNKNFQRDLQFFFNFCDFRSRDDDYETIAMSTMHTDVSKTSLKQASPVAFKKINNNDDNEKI

Structures are written as SMILES. Only a part is listed here, and it is no random draw. The source made the active and inactive calls. Cut-off read from the data, not from the text of the source: active = activation above about 33% (passing the limit was not always enough); inactive = the rest.

This experiment concerns the target Neuropeptide Y receptor type 1 (Homo sapiens) (UniProt P25929). The experiment can be described thus: NPY-Y1 receptor potentiators or agonists, primary screen, cell-based (AID 1304).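 Note: cells stimulated with NPY at EC10 then isoproterenol at EC100; 0% = low agonist plus stimulus and 100% = saturating agonist plus stimulus.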 The settings on record: NPY-Y1 expressing cells, potentiator/agonist activation; at 3.6 µM; active compounds read high.
In the case of `CCN1CCC(Nc2cccc(F)c2)CC1`, the activation was inactive: -18.6%.

Regarding `CN(C)c1ccc(C(=O)NCC2(N3CCCCC3)CCCCC2)cc1`, the activation was inactive: 11.6%.

`CCOc1ncccc1C(=O)NCC1(N2CCOCC2)CCCCC1`: the activation was inactive: -5.04%.

Regarding `CC(C)(C)OC(=O)N1CCC(Nc2ccccc2)CC1`, the activation is inactive: 0.84%.

Take `CCC(CO)(C(=O)OC1CN2CCC1CC2)c1ccccc1` (centres undefined): the activation was inactive: -28.8%.

As for `COc1cc(OC)cc(C(=O)NCC2(N3CCOCC3)CCCCC2)c1`, the activation is inactive: -30.7%.

Regarding `CCCOc1ccc(C)cc1CN(CCCl)CCCl`, the activation was inactive: 15.7%.

`COc1ccc(C(=O)NCC2(N3CCOCC3)CCCCC2)cc1OC`: the activation was inactive: -4.85%.

Consider `N/C(=N\O)c1c(N)no[n+]1[O-]`, for which the activation is inactive: 3.05%.

Turning to `O=C(OC1CN2CCC1CC2)C1c2ccccc2C=Cc2ccccc21` (centres undefined), the activation was inactive: 5.84%.

Regarding `N#Cc1ccc(C(=O)NCC2(N3CCCCC3)CCCCC2)cc1`, the activation was inactive: -3.99%.

In the case of `c1ccc(CN2CCC(Nc3ccccc3)CC2)cc1`, the activation was inactive: 16%.

Turning to `O=C(NCC1(N2CCCCC2)CCCCC1)c1cccc([N+](=O)[O-])c1`, the activation was inactive: 3.73%.

For the compound `N#CC1(Nc2ccccc2)CCN(CCc2ccccc2)CC1`, the activation was inactive: -22.5%.

`COc1ccc(NC2CCN(C(=O)OC(C)(C)C)CC2)cc1`: the activation is inactive: 20.1%.

Regarding `CN1CCN(CCOC(=O)C(O)(c2ccccc2)c2ccccc2)CC1`, the activation is inactive: -6.13%.

For the compound `O=C(NCC1(N2CCOCC2)CCCCC1)c1cc(=O)[nH]c2ccccc12`, the activation is inactive: -9.89%.

For the compound `COc1ccc(CN(CCCl)CCCl)cc1Cl`, the activation was inactive: 13.6%.

Regarding `CN(C)c1cccc(C(=O)NCC2(N3CCCCC3)CCCCC2)c1`, the activation was inactive: -9.28%.

As to `CC(C)c1ccc(NC2CCN(C(=O)OC(C)(C)C)CC2)cc1`, the activation is inactive: -0.44%.

Turning to `CN1CCC(Nc2cccc(F)c2)CC1`, the activation is inactive: -30.8%.

On to `COc1ccc(C(=O)NCC2(N3CCCCC3)CCCCC2)c(OC)c1OC`, for which the activation was active: 52.9%.

Turning to `O=C(NCC1(N2CCOCC2)CCCCC1)c1cc2ccccc2o1`, the activation was inactive: 7.99%.

On to `CCOC(=O)N1CCC(Nc2ccc(OC)cc2)CC1`, for which the activation is inactive: 10.6%.

`N#CC1(Nc2ccccc2)CCN(Cc2ccccc2)CC1`: the activation was inactive: 22.8%.

As to `O=C(OC1CN2CCC1CC2)C1c2ccccc2Oc2ccccc21` (centres undefined), the activation is inactive: -20.9%.

`CCOc1ccc(C)cc1CN(CCCl)CCCl`: the activation was inactive: -1.94%.

In the case of `COc1ccc(NC2CCN(CCc3ccccc3)CC2)c(OC)c1`, the activation was inactive: 21.1%.

`Cc1ccc(OCC(C)C)c(CN(CCCl)CCCl)c1`: the activation was inactive: 4.97%.
